# Patent publication US8633227B2, “Synthesis and novel salt forms of (R)-3-((E)-pyrrolidin-3-yl)vinyl)-5-tetrahydropyran-4-yloxy)pyridine” (priority 2008, dated 2014)
# Assay: Preliminary salt screen
# Format: physicochemical
# Conditions: equi-millimolar base and acid, 2-propanol or acetonitrile, alternative solvents
# Procedure: Test tubes (4 mL), provided with magnetic stir bars, were charged with equi-milimolar amounts of (R)-3-((E)-2-(pyrrolidin-3-yl)vinyl)-5-(tetrahydropyran-4-yloxy)pyridine base and the acid of interest (neat) and dissolved with 500 μL of either 2-propanol or acetonitrile with the aid of heat.
# If no precipitation occurred, the solvent was evaporated under a nitrogen stream with moderate heating and an alternative solvent was tried. Alternative solvents included acetone, ethyl acetate, isopropyl acetate, absolute ethanol, acetonitrile, hexane, tert-butanol, tert-butyl acetate, and blends thereof.
# The use of alcohols was avoided in the case of sulfonic acids.
substance,measurement,value
Phosphoric,Result of preliminary salt screen (physical form obtained),Gum
